Source: US20140377365A1, “SUSTAINED-RELEASE FORMULATION OF ROTIGOTINE” (MAP Pharmaceuticals, Inc., priority 2013, published 2014)

Assay: In situ rotigotine salt screening (precipitate formation in ethanol/HFA 227 solution formulation)
Format: physicochemical
Settings: 1 mg/mL rotigotine free base plus acid in 10% (w/w) ethanol in HFA 227; immediately upon preparation
Description: Rotigotine, bulk drug substance, was purchased from Chemagis (Perrigo API). A stock solution of rotigotine was prepared by dissolving rotigotine particles in ethanol at 10 mg/mL. With 1.5 mL rotigotine stock solution added to formulation bottles, each formulation bottle contained 15 mg rotigotine. For preparation of acid stock solutions, it was assumed that complete reaction or ion-pairing between rotigotine and acid. Based on the molecular weight and number of anions of each acid as listed in Table 1, acids stock solutions were prepared by dissolving the required amount in ethanol.
Each formulation bottle was filed with 1.5 mL of rotigotine stock solution and 1.0 ml, of acid stock solution. The formulation bottles (PET bottles) were then sealed with continuous valves and vortexed for 30 seconds to mix the solution well. Finally, 17.6 g of 1,1,1,2,3,3,3-heptafluoropropane (HFA227 (Mexichem)) to make a final volume of 15 mL of rotigotine formulation. All the bottles were hand shaken for 10 seconds.
All in situ salt screening samples were made as 1 mg/mL of rotigtine free base in 10% (w/w) ethanol in HFA 227. Acids corresponding to the salt forms in Table 1 were added according to the molar ratio with rotigotine for complete reaction. As 1 mg/mL was the minimal required dose at the time of experiment, all formulations were tested at this level to screen out non-solution salt formulations. […]

Observation, Immediate: white precipitate
Substance: Succinate
